Patent US20100292169A1, “METHODS AND COMPOSITIONS FOR REGULATING HDAC6 ACTIVITY” (Duke University, priority 2005, published 2010)

Biological target: T1, HDAC6-Hsp90 interaction (Homo sapiens, UniProt Q9UBN7)
T1 construct: endogenous HDAC6 and Hsp90 can be abundantly and specifically co-immunoprecipitated from multiple cell lines; endogenous in cells; host or cells: A549
T1 sequence (Q9UBN7 1-1215): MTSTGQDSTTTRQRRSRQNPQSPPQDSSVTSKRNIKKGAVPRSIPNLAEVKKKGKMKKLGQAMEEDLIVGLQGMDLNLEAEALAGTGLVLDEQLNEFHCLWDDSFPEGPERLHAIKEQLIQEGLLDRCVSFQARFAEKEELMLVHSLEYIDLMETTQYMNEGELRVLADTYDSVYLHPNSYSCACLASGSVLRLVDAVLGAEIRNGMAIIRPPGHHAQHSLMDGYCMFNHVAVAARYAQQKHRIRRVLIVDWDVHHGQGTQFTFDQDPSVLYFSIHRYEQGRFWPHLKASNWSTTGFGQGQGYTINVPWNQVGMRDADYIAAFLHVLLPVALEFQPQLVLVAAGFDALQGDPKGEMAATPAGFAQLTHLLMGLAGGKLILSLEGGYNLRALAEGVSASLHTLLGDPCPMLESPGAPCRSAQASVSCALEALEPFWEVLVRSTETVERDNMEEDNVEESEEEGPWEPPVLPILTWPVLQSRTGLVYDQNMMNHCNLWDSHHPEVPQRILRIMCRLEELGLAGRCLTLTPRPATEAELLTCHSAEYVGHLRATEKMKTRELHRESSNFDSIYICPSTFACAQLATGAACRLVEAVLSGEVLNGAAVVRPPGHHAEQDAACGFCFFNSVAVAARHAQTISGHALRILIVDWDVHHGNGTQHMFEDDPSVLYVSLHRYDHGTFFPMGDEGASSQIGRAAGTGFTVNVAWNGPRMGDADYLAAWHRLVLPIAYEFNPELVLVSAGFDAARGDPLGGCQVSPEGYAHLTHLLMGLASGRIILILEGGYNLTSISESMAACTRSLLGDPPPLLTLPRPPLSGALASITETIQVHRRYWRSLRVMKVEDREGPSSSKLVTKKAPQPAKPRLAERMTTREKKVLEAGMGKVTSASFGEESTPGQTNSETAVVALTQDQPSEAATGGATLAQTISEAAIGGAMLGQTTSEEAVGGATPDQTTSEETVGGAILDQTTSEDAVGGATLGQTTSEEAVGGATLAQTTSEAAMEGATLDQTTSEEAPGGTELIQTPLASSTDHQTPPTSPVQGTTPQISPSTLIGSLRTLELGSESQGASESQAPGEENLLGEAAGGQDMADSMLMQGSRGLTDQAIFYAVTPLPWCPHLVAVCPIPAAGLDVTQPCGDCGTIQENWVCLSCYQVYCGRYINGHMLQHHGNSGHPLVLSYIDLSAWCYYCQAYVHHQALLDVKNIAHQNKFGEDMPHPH
Experiment: HDAC6-Hsp90 co-immunoprecipitation in A549 cells
Assay type: cell-based
Conditions: 4 hour treatment, 1 μM

- association of HDAC6 with Hsp90: dissociation of HDAC6 from Hsp90
SMILES: CC(/C=C/C(=O)NO)=C\[C@@H](C)C(=O)c1ccc(N(C)C)cc1 [trichostatin A]
